## Antibody variant affinities, Ab-14 heavy chain, assay 1

Reference: Engelhart et al. 2022, doi:10.1038/s41597-022-01779-4. File: FLAb, binding data.

Target: peptide PDVDLGDISGINAS, taken from heptad repeat 2 (HR2) of SARS-CoV-2 spike.

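Library AAYL49 holds single substitutions and randomly drawn double and triple substitutions in the CDRs. In AlphaSeq, yeast of one mating type display the scFv and yeast of the other type display the target. After mating in shaken culture at 30 °C for 16 h, diploids were selected and their barcode pairs sequenced. A regression on co-assayed BCL2-family reference pairs converts the normalised counts of each replicate to an apparent Kd. There are three technical replicates.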

Parent: Ab-14, a human scFv built as VH, three GGGGS repeats, VL. Only the CDRs of the heavy chain vary.
VH: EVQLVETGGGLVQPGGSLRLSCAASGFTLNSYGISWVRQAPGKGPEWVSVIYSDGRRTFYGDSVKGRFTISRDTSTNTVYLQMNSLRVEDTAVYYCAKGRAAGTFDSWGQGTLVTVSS
VL: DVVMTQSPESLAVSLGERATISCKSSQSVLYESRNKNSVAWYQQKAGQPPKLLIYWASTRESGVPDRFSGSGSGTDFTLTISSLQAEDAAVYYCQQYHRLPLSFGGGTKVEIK

Variants are written as CDR1, CDR2 and CDR3 of the heavy chain (limits as in the source). Parent: GFTLNSYGIS, VIYSDGRRTFYGDSVK, GRAAGTFDS.
Affinities are written as log10 Kd with Kd in nM; a lower number is a better binder.
Averages over replicates are reported, and they cover detected replicates only.
A pair that was not seen in that replicate is written "ND"; this usually means weak binding, but a binder can also be missed.
Empty control strains, which show no peptide, gave a signal in 15% of pairings with library AAYL49; the median was 4.06 and 95% of these signals were weaker than 2.83. No background was subtracted. For each scFv, signals with the empty controls are counted beside the result, with their mean in brackets.

CDR-H1	CDR-H2	CDR-H3	log10 Kd, replicates	mean, log10 nM	signal with controls
GFTLWSYGIM	VIYSDGRRTFYGDKVK	GRAAGTFDS	ND / ND / 3.66	3.66	1 of 9 (3.07)
GFTLNSYGIS	VIYSDGRRTFYGDSVK	GRAAGTFHS	0.36 / 0.50 / 0.71	0.52	0 of 9
GFTLNSYGIS	VIYSDGRRTSYRDSVK	GRPAGTFDS	5.08 / ND / ND	5.08	1 of 9 (3.00)
GETLNSYGID	VIYSDGRRTFYGDSVK	KRAAGTFDS	ND / ND / 4.30	4.30	3 of 9 (3.42)
GFTLNSYGAS	VIYSDGRRTADGDSVK	GRAAGTFDS	ND / 4.99 / ND	4.99	2 of 9 (3.83)
GFTLNSYGIS	RQYSDGRETFYGDSVK	GRAAGTFDS	ND / ND / 3.20	3.20	1 of 9 (4.45)
GFTLNSYGIS	VIYSDDRRTFYGDSVK	GRAAGTFDP	ND / ND / ND	ND	1 of 9 (3.40)
GFTLNSYGIS	VIYSDGRRTFYGDSVK	GRAAGAFDS	ND / ND / ND	ND	1 of 9 (3.40)
GFTLNSYGIS	VIYSDGRRTFYGDMVK	MRAAITFDS	ND / ND / ND	ND	2 of 9 (4.06)
GFTLNSYGLS	AIYSDGRRTFYGDSVK	GRAMGTFDS	ND / ND / ND	ND	1 of 9 (4.14)
GFTLNSYGIS	VIYSDGRRTFDGDSVK	GRAAGTFDG	ND / ND / ND	ND	0 of 9
GFTLNSYGIS	VIYSDGRRTFYGDSVV	GHAAGTFDS	1.37 / 1.21 / 1.46	1.35	1 of 9 (4.22)
GFYLNSYGIS	VIYRDGRRPFYGDSVK	GRAAGTFDS	4.23 / ND / 5.21	4.72	4 of 9 (4.51)
GFTLNSYGIS	VRYSDGRHTFYGDSVK	GRAAGTFWS	ND / ND / 4.59	4.59	1 of 9 (3.21)
GFTLNSYGIS	VIYCDTRRTFYGGSVK	GRAAGTFDS	ND / ND / ND	ND	0 of 9
GFTLNSYGIS	VIYSFGRRTFYGDYVY	GRAAGTFDS	ND / ND / ND	ND	1 of 9 (4.43)
GFTLNSYGIS	VIYSDGRRTFYGDSVR	GRAHSTFDS	ND / 3.43 / ND	3.43	2 of 9 (4.26)
GFTLNSYGIG	VIYSDGRRWFYGDSVK	GKAAGTFDS	ND / ND / ND	ND	0 of 9
GFTLNSYGIS	VIYSDGRRYFYGDSVK	GRAAGTHCS	ND / ND / ND	ND	0 of 9
GFTLNSYGIS	VSMSDGRRTFYGDSVF	GRAAGTFDS	ND / ND / ND	ND	0 of 9
GFYLNSYGNS	VIYSDGMRTFYGDSVK	GRAAGTFDS	ND / ND / ND	ND	3 of 9 (4.35)
GFTLNSYGIS	VIYSDGRRTFYIDSVK	GRAAGPFDS	3.98 / 3.12 / ND	3.55	1 of 9 (4.76)
GFTLNSYGIS	VIYSDGRRVFYGRSVK	GRAAGTFDD	2.64 / 1.71 / ND	2.17	0 of 9
GFTLNSYIIS	VIYSDGRRTFYKDSVL	GRAAGTFDS	ND / 4.94 / ND	4.94	1 of 9 (3.61)
GFTLNSYGIS	VIWSDGRRTFYGDSVK	GTAAGTFPS	4.98 / 5.09 / 5.41	5.16	6 of 9 (4.82)
TFTLCSYGIS	VIYSDGRRTFYGDSVK	GRAAGTDDS	ND / ND / ND	ND	0 of 9
GFTLNSYGIQ	VIYSDGRRTFYWDSVK	GVAAGTFDS	4.01 / ND / 4.45	4.23	2 of 9 (3.46)
PFTLNSYGIS	VIYWDGRRTFYGDNVK	GRAAGTFDS	ND / ND / ND	ND	1 of 9 (3.10)
GSTLSSYGIS	VIYSDGRRTFYGDSVK	PRAAGTFDS	ND / ND / ND	ND	0 of 9
GFTQNSYGIS	VIYSDGERTFYGDSVK	WRAAGTFDS	ND / 2.01 / ND	2.01	2 of 9 (4.13)
GVTLNMYKIS	VIYSDGRRTFYGDSVK	GRAAGTFDS	ND / 3.38 / ND	3.38	1 of 9 (3.53)
GFTLNSYGIS	VIYIDGRRTFYGDSVK	GRAAGTRWS	ND / ND / 3.12	3.12	1 of 9 (3.46)
GFTLNQYGIS	VIYSDGRETFYGDSVN	GRAAGTFDS	4.50 / ND / ND	4.50	1 of 9 (4.80)
GFTLNPYGIS	VIYSCGRRTFYGDSVK	GRAAGTFDE	3.45 / ND / ND	3.45	0 of 9
GFTLNSYGIS	YIYSDGRRTFYGDSVK	GRASTTFDS	ND / ND / 3.18	3.18	1 of 9 (3.18)
GFTLNSRGIS	VIYSDGRRTFCGDSPK	GRAAGTFDS	ND / ND / ND	ND	1 of 9 (2.79)
GFYLNSYGIS	VIYSDGRRTFYGDSVK	GLAAGTQDS	2.24 / 1.82 / 3.27	2.45	0 of 9
GFTLNSTGIS	VIYSDGRRTFYSFSVK	GRAAGTFDS	ND / ND / ND	ND	2 of 9 (3.85)
SFTLASYGIS	VIYSDGRRTFYGDSVK	GYAAGTFDS	2.95 / 2.49 / 3.56	3.00	1 of 9 (4.02)
GFTLNSTGIS	VIYSDGRRTFYGDSVK	GRAAGGHDS	2.89 / 3.01 / 4.74	3.55	3 of 9 (3.64)
GFTLNSHGIS	VCYSDGRRTFYGDSVK	GRAAGTFDS	ND / ND / ND	ND	0 of 9

Excerpt, the final 6 entries:

CDR-H1	CDR-H2	CDR-H3	log10 Kd, replicates	mean, log10 nM	signal with controls
GFTLNSRGIS	VIYSDGRRTFCGDSPK	GRAAGTFDS	ND / ND / ND	ND	1 of 9 (2.79)
GFYLNSYGIS	VIYSDGRRTFYGDSVK	GLAAGTQDS	2.24 / 1.82 / 3.27	2.45	0 of 9
GFTLNSTGIS	VIYSDGRRTFYSFSVK	GRAAGTFDS	ND / ND / ND	ND	2 of 9 (3.85)
SFTLASYGIS	VIYSDGRRTFYGDSVK	GYAAGTFDS	2.95 / 2.49 / 3.56	3.00	1 of 9 (4.02)
GFTLNSTGIS	VIYSDGRRTFYGDSVK	GRAAGGHDS	2.89 / 3.01 / 4.74	3.55	3 of 9 (3.64)
GFTLNSHGIS	VCYSDGRRTFYGDSVK	GRAAGTFDS	ND / ND / ND	ND	0 of 9

In this assay the parent's reference entry averaged 0.65; its copy inside this library read 4.11 (one replicate of three).